Data on six compounds can be found in patent publication US11267861B2, “Peptide-oligourea foldamer compounds and methods of their use” (UREKA SARL, priority 2016, dated 2022).

One series deals with chymotrypsin. Nature of the series: Enzymatic degradation by chymotrypsin. Particulars: compared to native peptide GLP-1 (SEQ ID NO: 1). In kind it is in vitro ADME. Here is the method:
Enzymatic Degradation—Chymotrypsin and Trypsin. Stock solutions of the compounds were prepared at a concentration of 400 μM in a solution of 50 mM HEPES buffer, 50 mM NaCl, 0.05% Tween-80, pH 8.0. Stock solution of the chymotrypsin or trypsin was prepared at a concentration of 250 μg/mL in water. Stability of compounds to chymotrypsin was assessed by conducting a protease reaction in a 96-well plates at room temperature. Each well received 10 μL of HEPES buffer, 38 μL of the solution of compound to be assayed (final concentration 304 μmol/L), and 2 μL of the enzyme solution (final concentration 10 μg/mL) for a total volume of 50 μL. Each compound was also incubated in the absence of the enzyme (12 μL of HEPES buffer and 38 μL of the compound).
At the indicated time (5, 10, 15, 30 and 60 minute(s)) a 10 μL aliquot was removed from each experimental reaction and pipet into 100 μL of 1% TFA solution to quench the reaction (t=0 minutes was determined using the reaction without enzyme). A portion of the quenched reaction solution was analyzed by HPLC. The time course of peptide degradation was determined by integrating the area of each peak in a series of HPLC traces. Another portion of the quenched reaction was analyzed by LC-MS for identification of each peptide fragment.

A further series addresses T1, mouse GLP-1 receptor (Mus musculus, UniProt O35659).
T1 construct: mouse GLP-1 receptor endogenously expressed in βTC6 cells; endogenous in cells; host or cells: βTC6 cells
T1 sequence (O35659 22-463): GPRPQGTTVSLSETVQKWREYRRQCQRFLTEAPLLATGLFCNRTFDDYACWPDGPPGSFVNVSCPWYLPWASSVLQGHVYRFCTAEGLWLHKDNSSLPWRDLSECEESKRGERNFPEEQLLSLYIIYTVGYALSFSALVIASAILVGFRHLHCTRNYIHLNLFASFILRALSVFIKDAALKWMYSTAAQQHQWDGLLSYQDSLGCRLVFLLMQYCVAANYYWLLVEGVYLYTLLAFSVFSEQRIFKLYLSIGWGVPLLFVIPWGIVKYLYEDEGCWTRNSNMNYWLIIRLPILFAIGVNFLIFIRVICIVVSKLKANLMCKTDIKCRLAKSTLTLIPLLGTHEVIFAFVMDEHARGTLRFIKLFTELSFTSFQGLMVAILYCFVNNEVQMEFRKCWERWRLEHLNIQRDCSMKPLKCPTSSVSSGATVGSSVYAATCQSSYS
Nature of the series: GLP-1 functional assay: agonist activity by cAMP production (HTRF) in βTC6 cells. The series is classed as cell-based. The method, then: For stimulated control measurement, separate assay wells contain 10 nM GLP-1(7-37) were utilized.
Following incubation, the cells were lysed and the fluorescence acceptor (D2-labeled cAMP) and fluorescence donor (anti-cAMP antibody labeled with europium cryptate) were added. […] The results are expressed as a percent of the control response to 10 nM GLP-1(7-37). The standard reference agonist is GLP-1(7-37), which was tested in each experiment at several concentrations to generate a concentration-response curve from which its EC50 value was calculated.
HTRF (Homogeneous Time-Resolved Fluorescence) principle. The HTRF technology is based on time resolved fluorescence energy transfer (TR-FRET), which occurs between long-lived fluorophore Europium or Terbium Cryptates, and EuK or Tb respectively, as a donor and the allophycocyanin XL665, d2 or Red as acceptor. Many compounds and proteins present in biological fluids or serum are naturally fluorescent, and the use of conventional, prompt fluorescence leads to serious limitations in assay sensitivity. The use of long-lived fluorophore combined with time-resolved detection (a delay between excitation and emission detection) minimizes prompt fluorescence interference.
A general note: Cyclic AMP is a second messenger, typically raised through Gs and lowered through Gi signalling.

For series [1], the target named is T2, Carboxypeptidase A (EC 3.4.17.1) (Bos taurus, UniProt P00730).
T2 construct: from bovine pancreas (Fluka), milky suspension; purchased Fluka; host or cells: bovine pancreas
T2 sequence (P00730 111-419): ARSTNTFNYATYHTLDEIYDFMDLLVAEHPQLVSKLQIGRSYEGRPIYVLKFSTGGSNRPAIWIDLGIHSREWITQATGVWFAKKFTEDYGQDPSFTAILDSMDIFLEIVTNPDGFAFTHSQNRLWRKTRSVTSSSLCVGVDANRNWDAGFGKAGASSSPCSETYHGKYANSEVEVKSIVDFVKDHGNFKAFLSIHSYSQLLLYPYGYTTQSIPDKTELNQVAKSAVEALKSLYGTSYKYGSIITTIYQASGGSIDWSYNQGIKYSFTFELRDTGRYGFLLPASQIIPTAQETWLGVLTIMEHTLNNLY
Nature of the series: Enzymatic degradation by carboxypeptidase A. The series is classed as in vitro ADME, bovine. The following applies: same results = more stable than the native peptides. Here is the method:
Enzymatic Degradation—Carboxypeptidase A. Carboxypeptidase A (EC 3.4.17.1) from bovine pancreas (Fluka), milky suspension, stock solution in PBS buffer (pH 7.5, 0.01 M). For each degradation experiment, stock solutions of the peptidic substrate and the enzyme were made using phosphate-buffered saline (PBS) buffer solution. The enzyme concentrations of the stock solutions were selected such that the standard substrates were totally degraded after a maximum of 15 min (ratio 2[enzyme]:100[substrate]). PBS buffer solution (10 mM sodium phosphate, 0.14 M NaCl) was prepared as follows: Solution A (4.75 mL of 0.2 M NaH2PO4.H2O), solution B (20.25 mL of 0.2 M Na2HPO4.H2O), NaCl (4.5 g) and H2O (25 mL) were stirred for 15 min at room temperature and diluted tenfold with H2O. The pH was adjusted either with NaOH (1 M) or with HCl (1 M) prior to use. A solution of the substrate in PBS buffer (pH 7.5, 0.01 M) and a solution of the required amount of enzyme, were mixed and incubated at 25° C. for 4 hours. Degradation was stopped with concentrated AcOH, and buffer solution was added so that the total volume reached 150 μL.
The resulting mixture was analyzed by reversed-phase HPLC. A mixture of CH3CN/H2O (0.1% TFA) was used as eluent. Gradients were 10% CH3CN to 100% CH3CN in 10 minutes. The flow rate, for all separations, was 1 mL·min^−1.

What is called EC50 is the concentration giving half of the maximal effect. On to `CC[C@H](C)[C@H](NC(=O)[C@H](Cc1ccccc1)NC(=O)[C@H](CCC(=O)O)NC(=O)[C@H](CCCCN)NC(=O)[C@H](C)NC(=O)[C@H](C)NC(=O)[C@H](CCC(N)=O)NC(=O)CNC(=O)[C@H](CCC(=O)O)NC(=O)[C@H](CC(C)C)NC(=O)[C@H](Cc1ccc(O)cc1)NC(=O)[C@H](CO)NC(=O)[C@H](CO)NC(=O)[C@@H](NC(=O)[C@H](CC(=O)O)NC(=O)[C@H](CO)NC(=O)[C@@H](NC(=O)[C@H](Cc1ccccc1)NC(=O)[C@@H](NC(=O)CNC(=O)[C@H](CCC(=O)O)NC(=O)[C@H](C)NC(=O)[C@@H](N)Cc1c[nH]cn1)[C@@H](C)O)[C@@H](C)O)C(C)C)C(=O)N[C@@H](C)C(=O)N[C@@H](C)CNC(=O)N[C@@H](CC(C)C)C(=O)N[C@H](C(=O)N[C@@H](CCCCN)C(=O)NCC(=O)N[C@@H](CCCNC(=N)N)C(=O)NCC(=O)O)C(C)C` [Compound 3], for which the “half-life in the chymotrypsin degradation test compared to native peptide” value with chymotrypsin is recorded as “longer half-life”. The compound also had an EC50 on mouse GLP-1 receptor of 0.46 nM. In series [1], the “stability with carboxipeptidase A compared to native peptides” value was “same results”.
In the same order, the values of `CC[C@H](C)[C@H](NC(=O)[C@H](Cc1ccccc1)NC(=O)[C@H](CCC(=O)O)NC(=O)[C@H](CCCCN)NC(=O)[C@H](C)NC(=O)[C@H](C)NC(=O)[C@H](CCC(N)=O)NC(=O)CNC(=O)[C@H](CCC(=O)O)NC(=O)[C@H](CC(C)C)NC(=O)[C@H](Cc1ccc(O)cc1)NC(=O)[C@H](CO)NC(=O)[C@H](CO)NC(=O)[C@@H](NC(=O)[C@H](CC(=O)O)NC(=O)[C@H](CO)NC(=O)[C@@H](NC(=O)[C@H](Cc1ccccc1)NC(=O)[C@@H](NC(=O)CNC(=O)[C@H](CCC(=O)O)NC(=O)[C@H](C)NC(=O)[C@@H](N)Cc1c[nH]cn1)[C@@H](C)O)[C@@H](C)O)C(C)C)C(=O)N[C@@H](C)C(=O)N[C@@H](Cc1c[nH]c2ccccc12)C(=O)N[C@@H](C)CNC(=O)N[C@H](C(=O)N[C@@H](CCCCN)C(=O)NCC(=O)N[C@@H](CCCNC(=N)N)C(=O)NCC(=O)O)C(C)C` [Compound 5] are “longer half-life”, 0.42 nM and “same results”.
Regarding `CC[C@H](C)[C@H](NC(=O)[C@H](Cc1ccccc1)NC(=O)[C@H](CCC(=O)O)NC(=O)[C@H](CCCCN)NC(=O)[C@H](C)NC(=O)[C@H](C)NC(=O)[C@H](CCC(N)=O)NC(=O)CNC(=O)[C@H](CCC(=O)O)NC(=O)[C@H](CC(C)C)NC(=O)[C@H](Cc1ccc(O)cc1)NC(=O)[C@H](CO)NC(=O)[C@H](CO)NC(=O)[C@@H](NC(=O)[C@H](CC(=O)O)NC(=O)[C@H](CO)NC(=O)[C@@H](NC(=O)[C@H](Cc1ccccc1)NC(=O)[C@@H](NC(=O)CNC(=O)[C@H](CCC(=O)O)NC(=O)[C@H](C)NC(=O)[C@@H](N)Cc1c[nH]cn1)[C@@H](C)O)[C@@H](C)O)C(C)C)C(=O)N[C@@H](C)C(=O)N[C@@H](Cc1c[nH]c2ccccc12)C(=O)N[C@@H](CC(C)C)C(=O)N[C@H](CNC(=O)N[C@@H](CCCCN)C(=O)NCC(=O)N[C@@H](CCCNC(=N)N)C(=O)NCC(=O)O)C(C)C` [Compound 8], the “half-life in the chymotrypsin degradation test compared to native peptide” value in the series on chymotrypsin is “longer half-life”. The compound also came in with an EC50 at mouse GLP-1 receptor of 0.2 nM.
In turn, `CC[C@H](C)[C@H](NC(=O)[C@H](Cc1ccccc1)NC(=O)[C@H](CCC(=O)O)NC(=O)[C@H](CCCCN)NC(=O)[C@H](C)NC(=O)[C@H](C)NC(=O)[C@H](CCC(N)=O)NC(=O)CNC(=O)[C@H](CCC(=O)O)NC(=O)[C@H](CC(C)C)NC(=O)[C@H](Cc1ccc(O)cc1)NC(=O)[C@H](CO)NC(=O)[C@H](CO)NC(=O)[C@@H](NC(=O)[C@H](CC(=O)O)NC(=O)[C@H](CO)NC(=O)[C@@H](NC(=O)[C@H](Cc1ccccc1)NC(=O)[C@@H](NC(=O)CNC(=O)[C@H](CCC(=O)O)NC(=O)[C@H](C)NC(=O)NC[C@@H](N)Cc1c[nH]cn1)[C@@H](C)O)[C@@H](C)O)C(C)C)C(=O)N[C@@H](C)C(=O)N[C@@H](Cc1c[nH]c2ccccc12)C(=O)N[C@@H](CC(C)C)C(=O)N[C@H](C(=O)N[C@@H](CCCCN)C(=O)NCC(=O)N[C@@H](CCCNC(=N)N)C(=O)NCC(=O)O)C(C)C` [Compound 12] had an EC50 on mouse GLP-1 receptor of 280 nM.
As for `CC[C@H](C)[C@H](NC(=O)[C@H](Cc1ccccc1)NC(=O)[C@H](CCC(=O)O)NC(=O)[C@H](CCCCN)NC(=O)[C@H](C)NC(=O)[C@H](C)NC(=O)[C@H](CCC(N)=O)NC(=O)CNC(=O)[C@H](CCC(=O)O)NC(=O)NC[C@H](Cc1ccc(O)cc1)NC(=O)[C@H](Cc1ccc(O)cc1)NC(=O)[C@H](CO)NC(=O)[C@H](CO)NC(=O)[C@@H](NC(=O)[C@H](CC(=O)O)NC(=O)[C@H](CO)NC(=O)[C@@H](NC(=O)[C@H](Cc1ccccc1)NC(=O)[C@@H](NC(=O)CNC(=O)[C@H](CCC(=O)O)NC(=O)[C@H](C)NC(=O)[C@@H](N)Cc1c[nH]cn1)[C@@H](C)O)[C@@H](C)O)C(C)C)C(=O)N[C@@H](C)C(=O)N[C@@H](Cc1c[nH]c2ccccc12)C(=O)N[C@@H](CC(C)C)C(=O)N[C@H](C(=O)N[C@@H](CCCCN)C(=O)NCC(=O)N[C@@H](CCCNC(=N)N)C(=O)NCC(=O)O)C(C)C` [Compound 44], at mouse GLP-1 receptor, the half-maximal effective concentration (EC50) turned out to be 0.048 nM.
For `CC[C@H](C)[C@H](NC(=O)[C@H](Cc1ccccc1)NC(=O)[C@H](CCC(=O)O)NC(=O)[C@H](CCCCN)NC(=O)[C@H](C)NC(=O)NC[C@H](C)NC(=O)[C@H](CCC(N)=O)NC(=O)CNC(=O)[C@H](CCC(=O)O)NC(=O)[C@H](CC(C)C)NC(=O)[C@H](Cc1ccc(O)cc1)NC(=O)[C@H](CO)NC(=O)[C@H](CO)NC(=O)[C@@H](NC(=O)[C@H](CC(=O)O)NC(=O)[C@H](CO)NC(=O)[C@@H](NC(=O)[C@H](Cc1ccccc1)NC(=O)[C@@H](NC(=O)CNC(=O)[C@H](CCC(=O)O)NC(=O)[C@H](C)NC(=O)[C@@H](N)Cc1c[nH]cn1)[C@@H](C)O)[C@@H](C)O)C(C)C)C(=O)N[C@@H](C)C(=O)N[C@@H](Cc1c[nH]c2ccccc12)C(=O)N[C@@H](CC(C)C)C(=O)N[C@H](C(=O)N[C@@H](CCCCN)C(=O)NCC(=O)N[C@@H](CCCNC(=N)N)C(=O)NCC(=O)O)C(C)C` [Compound 45], on mouse GLP-1 receptor, the response was half-maximal at 0.036 nM (EC50). This EC50 and that of the compound before are within 1.5-fold of each other.
